## scFv variants of Ab-14 (heavy chain) against a SARS-CoV-2 spike peptide

Reference: Li et al. 2023, doi:10.1038/s41467-023-39022-2. File: FLAb, binding data.

Target: peptide PDVDLGDISGINAS, taken from heptad repeat 2 (HR2) of SARS-CoV-2 spike.

Each scFv is VH, a 15-residue (Gly4Ser)3 linker, VL, as in the parent Ab-14, and differs from it in the CDRs of the heavy chain only.
VH: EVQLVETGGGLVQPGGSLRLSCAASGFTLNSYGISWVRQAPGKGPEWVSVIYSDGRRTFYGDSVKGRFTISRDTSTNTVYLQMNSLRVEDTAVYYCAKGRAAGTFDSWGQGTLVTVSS
VL: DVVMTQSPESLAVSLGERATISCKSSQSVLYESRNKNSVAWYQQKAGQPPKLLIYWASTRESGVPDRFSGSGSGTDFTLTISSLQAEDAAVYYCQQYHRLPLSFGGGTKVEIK

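The starting antibody came from a phage panning campaign against this peptide. The variants were designed computationally from a first round of random CDR variants and then made and measured. Group labels follow the data file (Ctrl: baseline library sampled from a position-specific scoring matrix, with some repeated check sequences; Rand: our label for a block that the file lists under HC and that is probably the random mutants of the ten best first-round binders; GP: Gaussian process model; GPLM: also part of the Gaussian process libraries; HC: hill climbing; Gen: genetic algorithm; Gibbs: Gibbs sampling; a sequence that several methods proposed may carry one label only). The assay is AlphaSeq: two haploid yeast populations carry antibody and antigen on their surface. Binding brings cells together so that they mate, and sequencing counts the barcode pairs among the diploids. Scores were corrected for input abundance and mapped to Kd with protein pairs of known affinity run in the same pool. The assay was run in six technical replicates.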

Positions count from residue 1 of the parent VH; T28Q puts Q in place of T.
This list holds designs with at most six substitutions.
Values are log10 of the apparent Kd in nM; lower means stronger binding.
A mean of the replicates is given; it leaves out those without a signal.
A pair that was not seen in any replicate is written "nd"; this usually means weak binding, but a binder can also be missed.

changes	group	mean, log10 nM	seen in	signal with controls
T28Q+G61A+A101L	GPLM_Gibbs	0.45	6/6	1/18
T28D+G103W+F105Y	GP_HC	nd	0/6	1/18
T28H+S31D+G61M+A101Q	GP_HC	1.66	6/6	0/18
G26H+S53F+F59A+A101V+A102T	Ctrl	nd	0/6	2/18
G61Q+G99D	Ctrl	nd	0/6	0/18
T28D+R100K+A101V	GPLM_Gen	-0.14	6/6	0/18
S31D+S63A+A101T	GPLM_Gen	0.84	1/6	0/18
T28D+G61V+R100W+A101T	GP_Gen	0.52	6/6	0/18
T28S+G61A+S63A+R100S+S107K	GP_Gibbs	0.30	5/6	0/18
T28S+F59A+G61A	GPLM_Gen	-0.17	6/6	0/18
S53A+G103A	Ctrl	nd	0/6	1/18
T28S+S31E+G61Q+A101N	GP_HC	-0.21	6/6	0/18
S31E+R56T+G61S	GP_HC	-0.17	6/6	0/18
N30K+S53A+S107T	GP_Gen	0.65	6/6	1/18
S31E+T58A+G61T+A101F+A102R+T104G	Rand	1.80	2/6	1/18
T28E+G61T+R100K+A101T	GPLM_Gibbs	1.03	6/6	1/18
T28D+G61S+A101V+T104W	Ctrl	nd	0/6	0/18
T28S+S31E+S63H+A101T	GP_Gen	0.33	5/6	0/18
G61T+R100M+A101C	GP_HC	2.74	1/6	0/18
A102R+D106E	Ctrl	nd	0/6	0/18
T28V+S31D+G61I+S63T+R100N	GP_HC	-0.33	6/6	0/18
S31E+G61T+A101Q+S107E	GP_HC	0.25	6/6	1/18
T28D+F59E+D106N	GP_HC	nd	0/6	0/18
T28E+S63Q+A101T+S107L	GP_Gibbs	0.98	6/6	0/18
T28M+G61S+R100Q+A101T	GP_Gibbs	0.20	4/6	0/18
G61T+G103L	Ctrl	nd	0/6	0/18
S31Q+G61S+G103F+T104F	Rand	nd	0/6	0/18
S31Q+R56Q+G61S+R100E	GPLM_HC	0.21	6/6	0/18
N30E+S31E+D106I	GPLM_HC	nd	0/6	0/18
S53A+F105N+D106K+S107M	GP_HC	nd	0/6	0/18
T28D+S31K+F59M+A101Q	GP_Gibbs	0.90	1/6	0/18
T28H+S31M+G103T+D106T	Ctrl	2.00	1/6	2/18
T58C+F59S+G61N+T104W+D106F	Ctrl	nd	0/6	0/18
S31E+D62E+S107Q	GP_HC	1.96	1/6	0/18
S53A+A101T+D106K+S107I	GP_HC	nd	0/6	0/18
S53F+G61H+A102I	Ctrl	nd	0/6	0/18
L29P+R56K+S63K+R100K	Ctrl	1.31	1/6	0/18
T28S+F59A+G61H+A102G	GP_HC	nd	0/6	0/18
S31E+G103V+D106G+S107L	GP_HC	nd	0/6	0/18
F27I+T28E+F59S+R100K+S107G	Ctrl	1.30	5/6	1/18
S31E+D106L+S107A	Ctrl	nd	0/6	0/18
T28S+G61T+R100Q+A101V	GPLM_Gibbs	-0.26	6/6	0/18
T28N+Y52V	Ctrl	nd	0/6	0/18
G61A+R100Q+A101L	GPLM_Gen	0.49	6/6	0/18
T28S+G61A+S63D+R100K	GPLM_Gen	1.15	6/6	0/18
L29R+G61H	Ctrl	0.14	6/6	0/18
T28G+G61I+R100Q+S107Q	GP_Gibbs	0.97	4/6	0/18
S31E+V64C+G103V+S107M	Rand	nd	0/6	0/18
T28E+R100Q+S107W	Ctrl	nd	0/6	0/18
N30E+G61I+R100Q+A101G	GP_HC	nd	0/6	0/18
R56V+G61A	GPLM_Gen	1.23	6/6	0/18
G26K+G61A+R100Q+A101L	GPLM_HC	1.25	6/6	1/18
G61S+A101M	GPLM_HC	0.75	6/6	0/18
T28S+G61D+R100K+A101N	GPLM_Gibbs	0.42	6/6	1/18
N30D+A101N	GPLM_Gen	0.53	6/6	0/18
G61S+S107T	GPLM_HC	0.58	6/6	0/18
A101E+S107T	GPLM_Gen	1.14	6/6	0/18
N30E+S31E	Ctrl+GPLM_HC	0.56	6/12	0/36
T58V+A101G	Ctrl	nd	0/6	1/18
I51P+S53A+F105N+D106K	Rand	nd	0/6	0/18
T28C+S31D+F59M+G61I	GP_HC	nd	0/6	0/18
T28N+F59A+R100Q	GPLM_Gibbs	0.53	6/6	0/18
S31E+A101T+D106Y	GP_HC	nd	0/6	1/18
N30D+R56E	Ctrl	1.70	5/6	0/18
S31I+G103V+S107Q	Rand	nd	0/6	0/18
S31E+A101L+F105M+S107Q	Ctrl	nd	0/6	0/18
N30D+S31D+F105G	Ctrl	nd	0/6	0/18
T58Q+F59A+G61Q+R100S	Ctrl	1.03	5/6	0/18

The first 5 entries again:

{"changes": "T28Q+G61A+A101L", "group": "GPLM_Gibbs", "mean, log10 nM": "0.45", "seen in": "6/6", "signal with controls": "1/18"}
{"changes": "T28D+G103W+F105Y", "group": "GP_HC", "mean, log10 nM": "nd", "seen in": "0/6", "signal with controls": "1/18"}
{"changes": "T28H+S31D+G61M+A101Q", "group": "GP_HC", "mean, log10 nM": "1.66", "seen in": "6/6", "signal with controls": "0/18"}
{"changes": "G26H+S53F+F59A+A101V+A102T", "group": "Ctrl", "mean, log10 nM": "nd", "seen in": "0/6", "signal with controls": "2/18"}
{"changes": "G61Q+G99D", "group": "Ctrl", "mean, log10 nM": "nd", "seen in": "0/6", "signal with controls": "0/18"}

As a blank, each scFv also met three strains without target: over all heavy chain designs, 1% of these pairings were detected, typically at 2.08 and seldom below 0.84. Also given: how often the same scFv was detected with the empty control strains.
The authors' rule: three or more of the six replicates give a measured affinity, fewer mean a poor binder.
Of ten entries with the parent sequence, four were seen in most replicates (averages 0.34 to 2.37), three in one and three in none, so single entries are noisy.
A sequence measured in both rounds can read differently, since the two assays cover different ranges.
A sequence that the file lists under several names has all its replicates pooled.